Drawing on patent US12286443B2, “Bycyclic JAK inhibitors and uses thereof” (Insilico Medicine IP Limited, priority 2019, dated 2025), this text covers IC50 for 1 compound.

By UniProt entry, the sequences of proteins in these tests, tags left out.
UniProt P23458, whole entry: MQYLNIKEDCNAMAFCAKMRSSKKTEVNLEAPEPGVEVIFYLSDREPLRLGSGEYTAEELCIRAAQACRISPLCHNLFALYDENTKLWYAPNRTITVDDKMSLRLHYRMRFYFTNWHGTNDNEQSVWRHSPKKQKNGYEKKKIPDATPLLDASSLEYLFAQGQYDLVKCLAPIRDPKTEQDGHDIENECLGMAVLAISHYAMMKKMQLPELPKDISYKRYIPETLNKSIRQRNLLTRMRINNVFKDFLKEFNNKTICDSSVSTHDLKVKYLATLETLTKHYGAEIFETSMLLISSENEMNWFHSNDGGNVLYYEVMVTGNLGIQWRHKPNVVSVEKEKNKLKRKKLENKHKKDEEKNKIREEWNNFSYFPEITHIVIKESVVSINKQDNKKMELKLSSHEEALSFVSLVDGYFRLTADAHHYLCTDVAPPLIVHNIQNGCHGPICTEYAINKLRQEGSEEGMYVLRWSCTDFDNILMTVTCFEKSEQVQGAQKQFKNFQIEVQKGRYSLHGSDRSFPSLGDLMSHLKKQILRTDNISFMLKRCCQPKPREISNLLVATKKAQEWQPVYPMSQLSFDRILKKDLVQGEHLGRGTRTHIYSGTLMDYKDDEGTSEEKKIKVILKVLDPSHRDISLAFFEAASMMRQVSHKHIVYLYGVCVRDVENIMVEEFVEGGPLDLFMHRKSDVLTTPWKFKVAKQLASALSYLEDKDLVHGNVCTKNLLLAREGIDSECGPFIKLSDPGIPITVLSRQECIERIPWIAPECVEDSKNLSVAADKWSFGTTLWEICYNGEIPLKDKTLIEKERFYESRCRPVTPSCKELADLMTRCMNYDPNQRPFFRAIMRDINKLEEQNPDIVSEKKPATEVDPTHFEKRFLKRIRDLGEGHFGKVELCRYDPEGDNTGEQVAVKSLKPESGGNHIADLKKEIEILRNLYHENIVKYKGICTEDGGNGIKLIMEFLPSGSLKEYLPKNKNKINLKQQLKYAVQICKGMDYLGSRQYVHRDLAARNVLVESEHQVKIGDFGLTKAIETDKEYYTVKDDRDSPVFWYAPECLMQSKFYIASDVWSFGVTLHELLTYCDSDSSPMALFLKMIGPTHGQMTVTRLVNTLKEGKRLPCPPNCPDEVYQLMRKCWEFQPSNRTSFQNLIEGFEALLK
UniProt O60674, whole entry: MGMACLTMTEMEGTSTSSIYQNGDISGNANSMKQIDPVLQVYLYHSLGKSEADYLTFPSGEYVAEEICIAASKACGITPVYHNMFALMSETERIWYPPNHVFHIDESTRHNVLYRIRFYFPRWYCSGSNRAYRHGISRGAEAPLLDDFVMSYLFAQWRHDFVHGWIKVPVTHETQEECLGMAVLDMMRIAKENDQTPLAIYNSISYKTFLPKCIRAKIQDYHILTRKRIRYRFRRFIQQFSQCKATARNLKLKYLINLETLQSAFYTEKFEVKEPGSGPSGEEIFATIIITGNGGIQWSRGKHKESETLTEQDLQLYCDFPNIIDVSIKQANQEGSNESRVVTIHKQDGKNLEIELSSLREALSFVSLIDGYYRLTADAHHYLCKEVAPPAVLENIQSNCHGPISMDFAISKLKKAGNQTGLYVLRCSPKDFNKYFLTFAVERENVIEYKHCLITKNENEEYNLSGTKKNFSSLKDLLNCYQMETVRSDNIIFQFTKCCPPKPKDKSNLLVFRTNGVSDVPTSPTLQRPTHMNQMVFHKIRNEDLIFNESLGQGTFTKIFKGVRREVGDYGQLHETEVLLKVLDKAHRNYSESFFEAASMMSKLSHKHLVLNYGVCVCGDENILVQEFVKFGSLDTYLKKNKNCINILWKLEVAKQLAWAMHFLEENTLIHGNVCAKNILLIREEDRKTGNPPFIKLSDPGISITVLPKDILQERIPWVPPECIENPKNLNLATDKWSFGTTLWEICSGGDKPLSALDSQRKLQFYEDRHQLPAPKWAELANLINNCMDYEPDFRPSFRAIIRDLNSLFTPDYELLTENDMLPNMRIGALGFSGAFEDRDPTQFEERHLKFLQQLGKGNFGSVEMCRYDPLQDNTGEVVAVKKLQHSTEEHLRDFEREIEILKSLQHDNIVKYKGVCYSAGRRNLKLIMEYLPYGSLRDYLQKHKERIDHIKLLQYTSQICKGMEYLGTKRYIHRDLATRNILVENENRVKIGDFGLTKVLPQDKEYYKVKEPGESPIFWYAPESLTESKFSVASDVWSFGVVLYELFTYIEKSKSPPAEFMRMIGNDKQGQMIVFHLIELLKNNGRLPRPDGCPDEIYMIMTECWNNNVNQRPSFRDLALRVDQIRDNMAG
UniProt P52333, whole entry: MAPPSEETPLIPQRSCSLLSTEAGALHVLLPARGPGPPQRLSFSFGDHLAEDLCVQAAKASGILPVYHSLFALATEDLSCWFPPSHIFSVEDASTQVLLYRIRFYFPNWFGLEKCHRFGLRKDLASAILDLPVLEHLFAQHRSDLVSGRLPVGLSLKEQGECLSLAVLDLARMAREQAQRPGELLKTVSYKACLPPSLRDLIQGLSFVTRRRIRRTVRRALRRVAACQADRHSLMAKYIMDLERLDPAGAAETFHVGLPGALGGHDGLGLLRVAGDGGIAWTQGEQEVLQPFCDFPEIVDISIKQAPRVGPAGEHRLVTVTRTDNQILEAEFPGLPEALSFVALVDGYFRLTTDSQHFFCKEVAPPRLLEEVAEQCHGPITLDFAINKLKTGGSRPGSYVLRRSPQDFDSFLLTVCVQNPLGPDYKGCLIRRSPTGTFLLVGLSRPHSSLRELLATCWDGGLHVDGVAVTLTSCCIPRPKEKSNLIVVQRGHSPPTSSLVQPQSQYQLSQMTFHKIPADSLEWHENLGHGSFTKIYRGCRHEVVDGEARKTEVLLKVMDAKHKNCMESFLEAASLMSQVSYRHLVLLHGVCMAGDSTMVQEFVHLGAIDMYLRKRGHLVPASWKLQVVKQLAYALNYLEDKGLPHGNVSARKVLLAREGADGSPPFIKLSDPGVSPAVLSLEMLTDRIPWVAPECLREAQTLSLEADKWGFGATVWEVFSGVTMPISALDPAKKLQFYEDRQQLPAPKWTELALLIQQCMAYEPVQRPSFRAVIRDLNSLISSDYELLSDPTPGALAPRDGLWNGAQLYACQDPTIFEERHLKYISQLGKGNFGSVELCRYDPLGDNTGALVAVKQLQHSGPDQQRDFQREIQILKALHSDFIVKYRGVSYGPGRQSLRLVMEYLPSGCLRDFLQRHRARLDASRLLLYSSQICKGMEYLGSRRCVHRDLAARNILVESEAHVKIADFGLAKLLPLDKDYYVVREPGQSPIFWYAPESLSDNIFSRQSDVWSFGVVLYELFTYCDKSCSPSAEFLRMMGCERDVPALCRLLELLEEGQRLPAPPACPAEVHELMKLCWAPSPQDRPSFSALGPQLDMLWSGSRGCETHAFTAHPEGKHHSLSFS
UniProt P29597, whole entry: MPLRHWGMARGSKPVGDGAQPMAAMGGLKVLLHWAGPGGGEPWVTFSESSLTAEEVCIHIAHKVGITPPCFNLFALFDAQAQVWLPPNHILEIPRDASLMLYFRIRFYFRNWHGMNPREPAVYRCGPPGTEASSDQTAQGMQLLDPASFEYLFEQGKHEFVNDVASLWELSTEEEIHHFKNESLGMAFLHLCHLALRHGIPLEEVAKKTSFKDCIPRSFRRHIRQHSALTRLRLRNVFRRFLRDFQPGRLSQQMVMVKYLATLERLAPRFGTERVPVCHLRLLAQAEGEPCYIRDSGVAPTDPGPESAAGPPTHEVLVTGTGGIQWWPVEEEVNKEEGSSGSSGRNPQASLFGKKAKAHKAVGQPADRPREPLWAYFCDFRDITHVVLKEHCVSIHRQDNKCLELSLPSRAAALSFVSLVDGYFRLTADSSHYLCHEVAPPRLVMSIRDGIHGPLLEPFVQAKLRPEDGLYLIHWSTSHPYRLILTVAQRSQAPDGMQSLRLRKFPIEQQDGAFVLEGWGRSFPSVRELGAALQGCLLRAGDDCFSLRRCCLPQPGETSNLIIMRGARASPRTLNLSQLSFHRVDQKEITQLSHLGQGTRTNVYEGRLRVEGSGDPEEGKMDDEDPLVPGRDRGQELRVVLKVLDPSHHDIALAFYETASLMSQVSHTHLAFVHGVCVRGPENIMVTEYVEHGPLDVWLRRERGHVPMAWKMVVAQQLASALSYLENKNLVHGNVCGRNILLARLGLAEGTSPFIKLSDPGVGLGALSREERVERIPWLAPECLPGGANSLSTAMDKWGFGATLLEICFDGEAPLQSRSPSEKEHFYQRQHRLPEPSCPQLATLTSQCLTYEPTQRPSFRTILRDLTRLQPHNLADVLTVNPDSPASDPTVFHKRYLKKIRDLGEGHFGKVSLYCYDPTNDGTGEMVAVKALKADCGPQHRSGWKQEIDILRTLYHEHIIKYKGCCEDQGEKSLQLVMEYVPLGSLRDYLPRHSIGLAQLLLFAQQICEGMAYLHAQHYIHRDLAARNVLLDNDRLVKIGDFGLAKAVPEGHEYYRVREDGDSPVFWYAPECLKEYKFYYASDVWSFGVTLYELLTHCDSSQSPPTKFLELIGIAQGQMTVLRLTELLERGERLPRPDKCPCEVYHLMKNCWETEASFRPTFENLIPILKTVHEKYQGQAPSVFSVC

One experiment has as its target JAK1 (Homo sapiens, UniProt P23458). The experiment is described as follows: Inhibition of JAK1 kinase, LANCE Ultra TR-FRET assay. As to conditions: read-out: Jak1 IC50, 2 nM JAK1, 2x ATP 76 μM, 15 min pre-incubation, 90 min reaction, 23° C. Here is the method:
(§1) Exemplary compounds were assayed to determine potency in inhibiting activity of JAK1-3 and TYK2 kinases by determining IC50 values.
(§2) The sources of test materials and equipment are as follows: JAK1 (Invitrogen, Cat. No PV4775), JAK2 (Invitrogen, Cat. No PV4210), JAK3 (Invitrogen, Cat. No PV4080), TYK2 (Invitrogen, Cat. No PR8440C), ATP (Sigma, Cat. No. A7699-1G), DMSO (Sigma, Cat. No. D2650), DTT (Sigma, Cat. No. 43815), 384 wells_compound plate (Greiner, Cat. No. 781280), 384 wells_assay plate (Perkin Elmer, Cat. No. 6007299), LANCE Ultra ULight™-JAK-1 peptide (Perkin Elmer, Cat. No. TRF0121), LANCET™ Eu-W1024 Anti-phosphotyrosine (PT66) (Perkin Elmer, Cat. No. AD0069), LANCET™ Detection Buffer(Perkin Elmer, Cat. No. CR97-100).
(§3) The concentrations of test compounds varied from 100 μM to 1.7 nM with 3-fold dilution, 11 points, in duplicates while the concentrations of the reference compound, Tofacitinib, varied from 1 μM to 0.017 nM with 3-fold dilution, 11 points, in duplicates. […]
(§4) Prior to the assay, enzyme, peptide substrate and serially diluted test compounds were pre-incubated together in assay buffer (5 μL) for 15 minutes (peptide substrate concentration: 50 nM; JAK enzyme concentrations: 2 nM JAK1; […]; 80 μM JAK3 and 4 nM TYK2). […] The plate is analyzed by Perkin Elmer Envision on TR-FRET mode. […]
A general note: Time-resolved FRET reads energy transfer from a long-lived donor to a nearby acceptor.

Another experiment addresses JAK2 (Homo sapiens, UniProt O60674). Kind of experiment: Inhibition of JAK2 kinase, LANCE Ultra TR-FRET assay. As to conditions: read-out: Jak2 IC50, 2x ATP 24 μM, 15 min pre-incubation, 90 min reaction, 23° C. The protocol:
as §1, §2, §3, §4

The target of the next experiment is JAK3 (Homo sapiens, UniProt P52333). The experiment is described as follows: Inhibition of JAK3 kinase, LANCE Ultra TR-FRET assay. As to conditions: read-out: Jak3 IC50, 2x ATP 8 μM, 15 min pre-incubation, 90 min reaction, 23° C. The protocol:
as §1, §2, §3, §4

The target of a further experiment is TYK2 (Homo sapiens, UniProt P29597). The experiment is described as follows: Inhibition of TYK2 kinase, LANCE Ultra TR-FRET assay. As to conditions: read-out: tyk IC50, 4 nM TYK2, 2x ATP 30 μM, 15 min pre-incubation, 90 min reaction, 23° C. The protocol: as §1, §2, §3, §4

A value given as a limit tells only on which side of the number the result lay.

One may read the IC50 as the concentration at which inhibition is half-maximal. Turning to `O=C(NCc1ncco1)c1noc2c1CN(c1ncnc3[nH]ccc13)CC2`, the IC50 on JAK1 is 500 to 2000 nM; on JAK2, 500 to 2000 nM; at JAK3 it was 100 to 500 nM; at TYK2, above 2000 nM.
